# scFv variants of Ab-14 (light chain) against a SARS-CoV-2 spike peptide

The target is the same throughout: PDVDLGDISGINAS, from the HR2 region of SARS-CoV-2 spike.

The variants keep the heavy chain, the linker and the frameworks of Ab-14 (scFv order VH, a (GGGGS)3 linker, VL).
VH: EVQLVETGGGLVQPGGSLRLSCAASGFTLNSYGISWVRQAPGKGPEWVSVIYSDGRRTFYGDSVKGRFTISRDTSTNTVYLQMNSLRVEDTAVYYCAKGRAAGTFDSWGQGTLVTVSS
VL: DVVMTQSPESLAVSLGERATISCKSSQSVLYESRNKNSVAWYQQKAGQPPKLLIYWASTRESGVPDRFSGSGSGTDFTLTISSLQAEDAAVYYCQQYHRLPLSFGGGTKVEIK

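Phage display of a naive human antibody library on the peptide gave the parent. Designed CDR sequences, proposed from the first random library and measured here. Group labels follow the data file (Ctrl: baseline library sampled from a position-specific scoring matrix, with some repeated check sequences; GP: Gaussian process model; HC: hill climbing; Gen: genetic algorithm; a sequence that several methods proposed may carry one label only). AlphaSeq pools MATa yeast showing the antibodies with MATalpha yeast showing the peptide. After mating in shaken culture at 30 °C for 16 h, diploids were selected and their barcode pairs sequenced. Scores were corrected for input abundance and mapped to Kd with protein pairs of known affinity run in the same pool. There are six technical replicates.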

The parent's light chain CDRs are KSSQSVLYESRNKNSVA, WASTRES, QQYHRLPLS; each variant's own CDRs replace them letter for letter. Values are log10 of the apparent Kd in nM; lower means stronger binding. The mean shown is taken over the replicates in which the pair was detected. "n.d." means that the variant was in the library but no mating with the target was seen in that replicate; the authors take this as a sign of poor binding, and no number exists. Background: pairings of all light chain designs with three empty control strains gave a value in 4% of cases (median 2.64, 5th percentile 1.59). Values in that range, when seen in few replicates, are hard to tell from nonspecific mating. The control count says in how many pairings with the empty strains this scFv gave a signal, with their mean in brackets. The parent sequence was in this pool as ten entries: three were never detected, three once, and four in most replicates, with averages from 0.34 to 2.37. The range of this assay differs from that of the first round, and the authors advise against merging the two. Some sequences occur more than once in the pool; their replicates are listed entry by entry, parted by semicolons. The authors averaged sequences with at least three values out of six and counted those with two or fewer as poor binders.

| # | CDR-L1 | CDR-L2 | CDR-L3 | group | replicates, log10 nM | mean, log10 nM | signal with controls |
|---|---|---|---|---|---|---|---|
| 1 | KSWQSVLYESRNKNSVN | WASTRES | QQYHRLPLS | Ctrl | n.d. / n.d. / n.d. / n.d. / n.d. / 2.24 | 2.24 | 0 of 18 |
| 2 | KSSQSVLYESRNKNSVA | SASTRES | QQYMRLPLS | Ctrl | 0.68 / 0.34 / 0.62 / 0.42 / 0.41 / 0.47 | 0.49 | 0 of 18 |
| 3 | KSSQSVLYESRNKNSVA | SASTRSS | QQYHRLKLS | Ctrl | n.d. / 1.47 / n.d. / n.d. / n.d. / n.d. | 1.47 | 0 of 18 |
| 4 | KSSGSVLIESRNKNSVA | WASTRES | QQYHRLPLS | Ctrl | n.d. / n.d. / n.d. / n.d. / n.d. / n.d. | n.d. | 0 of 18 |
| 5 | KSSQSVQYDTRNKNSVA | QASTRES | QQYHRLPLS | Ctrl | 0.81 / 0.19 / 0.32 / 0.51 / 0.56 / 0.38 | 0.46 | 1 of 18 (2.10) |
| 6 | KSIQSVLNEARNKNSVA | WASTRES | QQYHRLPLS | Ctrl | n.d. / n.d. / n.d. / n.d. / 2.02 / n.d. | 2.02 | 0 of 18 |
| 7 | KSSQSVLYESRNKNSVA | KASTRES | QQYARLPLS | Ctrl | 0.29 / -0.17 / -0.04 / -0.09 / -0.03 / 0.21 | 0.03 | 0 of 18 |
| 8 | KSSQSMLYEGKNKNSVA | EASTREQ | QQYHRLPLS | Ctrl | 0.09 / -0.26 / -0.22 / -0.31 / -0.37 / -0.01 | -0.18 | 0 of 18 |
| 9 | KCSQSVLYESRNKNSVA | WASTREP | QQYHRLPLS | Ctrl | 1.13 / 0.59 / 1.13 / 1.54 / 0.67 / 1.21 | 1.05 | 0 of 18 |
| 10 | SSSQEVMYESRNKNSVA | WASTRES | QQYHRLPLS | Ctrl | n.d. / 1.51 / n.d. / 2.45 / n.d. / n.d. | 1.98 | 0 of 18 |
| 11 | KSSQGVEYESRNKNSVA | WASTRES | QQYHRLPLS | Ctrl | 2.02 / 1.70 / 1.35 / 1.93 / 2.83 / 2.82 | 2.11 | 1 of 18 (1.56) |
| 12 | KSSQSVLYESRNKNSVA | WASTREE | QQYHRLPLV | Ctrl | n.d. / n.d. / n.d. / n.d. / 2.32 / 1.90 | 2.11 | 1 of 18 (1.88) |
| 13 | KSSQSVQYESRNKNSVA | WASTRWK | QQYHWLPLS | Ctrl | n.d. / n.d. / n.d. / n.d. / n.d. / n.d. | n.d. | 0 of 18 |
| 14 | KSSQSVLFESRSKNSVA | HASTRES | QQYHRFPLS | Ctrl | 1.98 / n.d. / 1.91 / 2.42 / 1.75 / 2.82 | 2.18 | 0 of 18 |
| 15 | KSSQSVLYEARNKNSVA | WASTRES | QQVHRHPLS | Ctrl | n.d. / n.d. / n.d. / n.d. / n.d. / n.d. | n.d. | 1 of 18 (1.04) |
| 16 | KSSQSVEYESRNCNSVA | WDSTRES | QQYHRNPGS | Ctrl | n.d. / n.d. / n.d. / n.d. / n.d. / n.d. | n.d. | 0 of 18 |
| 17 | KFSQSVLYESRNKNSVA | GASTRES | QQYHRLPLS | Ctrl+GP_Gen | 0.02 / -0.04 / 0.20 / -0.19 / -0.25 / 0.25; 0.61 / n.d. / 0.52 / 1.07 / 1.36 / 1.40 | 0.45 | 2 of 36 (2.32) |
| 18 | KSSQSVLYESRNKNSVA | WASTRES | QAYPRLPLS | Ctrl | n.d. / n.d. / n.d. / n.d. / n.d. / n.d. | n.d. | 1 of 18 (1.52) |
| 19 | KSQQSVLYESRNKNSVA | WALTREE | QQYHRLPLS | Ctrl | n.d. / 2.25 / n.d. / n.d. / n.d. / n.d. | 2.25 | 0 of 18 |
| 20 | KSSQSVLYESRNSNSVA | GASTRED | QQYHRLPLS | Ctrl | 0.56 / 0.17 / 0.26 / 0.23 / 0.22 / 0.45 | 0.31 | 0 of 18 |
| 21 | KSMQSVLYESRNKNSVA | EASTRES | QQYHRLPLS | Ctrl | 0.00 / 0.22 / -0.06 / -0.19 / -0.37 / 0.35 | -0.01 | 1 of 18 (2.38) |
| 22 | KSSQSALDDSRNKNSVA | WASTREQ | QQYHRLPLS | Ctrl | 1.23 / 1.11 / 0.98 / 1.29 / 1.09 / 1.24 | 1.16 | 0 of 18 |
| 23 | KSQQSVLYESRNKNSVA | YASTRES | QQYHRLPLS | Ctrl | 0.71 / 1.40 / 1.59 / 0.52 / 0.72 / 0.87 | 0.97 | 0 of 18 |
| 24 | KSSQSVLYESREKNSVA | AASTRES | QQYHRLPLS | Ctrl | 0.95 / 0.95 / 0.63 / 0.67 / 0.82 / 0.84 | 0.81 | 1 of 18 (3.24) |
| 25 | KVSQSGLPESRNKNSVA | GISTRES | QQYHRLPLS | Ctrl | 0.87 / 0.59 / 0.49 / 0.45 / 0.75 / 0.67 | 0.64 | 1 of 18 (2.68) |
| 26 | KSSQSVEYESENKNSVA | KVDTREI | QQAHRLPLS | Ctrl | n.d. / n.d. / n.d. / n.d. / n.d. / 1.95 | 1.95 | 1 of 18 (1.33) |
| 27 | KSSQSVLEESVNKNSVA | SASTRES | QQYHRLPLS | Ctrl | 0.63 / 0.48 / 0.42 / 0.23 / 0.45 / 0.47 | 0.45 | 4 of 18 (2.97) |
| 28 | KSEQSVLYESRNKNSVA | WASTRES | QQYGNLPLS | Ctrl | n.d. / n.d. / n.d. / n.d. / n.d. / n.d. | n.d. | 0 of 18 |
| 29 | KSSQSVLYESRIKNSVA | WASTRPY | QQYHYLPLS | Ctrl | n.d. / n.d. / n.d. / n.d. / n.d. / n.d. | n.d. | 2 of 18 (1.59) |
| 30 | KLSQSVLYESRNYNSVA | WASTRES | QQYHRLPLS | Ctrl | 0.63 / 0.40 / 0.49 / 0.33 / 0.55 / 0.50 | 0.48 | 1 of 18 (1.90) |
| 31 | KISQSVLYESRNVNSVA | WASERES | QQYHRLPLS | Ctrl | 1.03 / 0.99 / 0.91 / 0.92 / 1.01 / 0.96 | 0.97 | 2 of 18 (3.28) |
| 32 | KSSESVLYESRNKNSVA | SADTRES | QQYIRLPLS | Ctrl | 0.57 / 0.25 / -0.28 / -0.33 / 0.27 / 0.51 | 0.17 | 0 of 18 |
| 33 | KFSQSVLYESRNKNSVA | MASTRES | QQYHRLPLS | Ctrl+GP_HC | n.d. / n.d. / n.d. / 1.83 / 3.70 / n.d.; 0.31 / -0.29 / 0.81 / 0.10 / 0.32 / 0.09 | 0.86 | 0 of 36 |
| 34 | KSSQNVLYESRNKNSVA | WDSTRES | QQYHRLPLS | Ctrl | 1.87 / 2.55 / 1.39 / 2.36 / 1.96 / 1.75 | 1.98 | 1 of 18 (3.06) |
| 35 | DSSQSVLYESRNKNSVA | WASTRES | QQYHRLPLS | Ctrl | 1.68 / 1.21 / 1.39 / 1.67 / 1.60 / 1.18 | 1.45 | 0 of 18 |
| 36 | KSSQSVLYESRNKNSVA | QASTLES | QQYHELPLS | Ctrl | 0.00 / -0.13 / 0.14 / -0.06 / 0.11 / 0.64 | 0.12 | 1 of 18 (2.16) |
| 37 | KSSQSVLYESRNKNSVA | SASTRES | QCRHRLPLS | Ctrl | 1.15 / 0.54 / 1.67 / n.d. / n.d. / 0.97 | 1.08 | 0 of 18 |
| 38 | KSSQSVLYESRNKNSVA | DASTRES | QQYCRLPLS | Ctrl | 0.57 / 0.41 / 0.50 / 0.13 / 0.38 / 0.34 | 0.39 | 1 of 18 (3.13) |
| 39 | KTSQSMLYASRNKNSVA | WASTRES | QQYHRLPLS | Ctrl | 0.88 / 1.52 / n.d. / n.d. / n.d. / n.d. | 1.20 | 0 of 18 |
| 40 | KSSQSELYESRNKNSVA | YASTRES | QQYHRLPPS | Ctrl | n.d. / n.d. / n.d. / n.d. / n.d. / 1.87 | 1.87 | 0 of 18 |
| 41 | KISQSVPYESRNKNSVA | EASTRES | QKYHHLPLS | Ctrl | n.d. / n.d. / n.d. / n.d. / n.d. / n.d. | n.d. | 0 of 18 |
| 42 | KLSQSVLYESRNKNSVA | WASTREL | QQYHRLPLS | Ctrl | 1.11 / 0.46 / 0.74 / 0.28 / 0.48 / 0.85 | 0.65 | 2 of 18 (2.36) |
| 43 | KVSMSVLYESRNKNSVA | WASTRES | QQYHRLPLS | Ctrl | n.d. / 2.38 / 1.42 / 2.26 / 2.42 / 3.33 | 2.36 | 2 of 18 (2.29) |
| 44 | KKSQSVLYESRNKNSVA | WAKTRES | QQYHRLPLS | Ctrl | n.d. / n.d. / n.d. / n.d. / n.d. / n.d. | n.d. | 0 of 18 |
| 45 | KSPQSYLYESRMKNSVA | WASTLES | QQYHRLPLS | Ctrl | n.d. / n.d. / n.d. / n.d. / n.d. / n.d. | n.d. | 1 of 18 (2.58) |

A selection of 3 entries from above:

| CDR-L1 | CDR-L2 | CDR-L3 | group | replicates, log10 nM | mean, log10 nM | signal with controls |
|---|---|---|---|---|---|---|
| KSSQSVLYESRNKNSVA | QASTLES | QQYHELPLS | Ctrl | 0.00 / -0.13 / 0.14 / -0.06 / 0.11 / 0.64 | 0.12 | 1 of 18 (2.16) |
| KSSGSVLIESRNKNSVA | WASTRES | QQYHRLPLS | Ctrl | n.d. / n.d. / n.d. / n.d. / n.d. / n.d. | n.d. | 0 of 18 |
| KSSQSVQYDTRNKNSVA | QASTRES | QQYHRLPLS | Ctrl | 0.81 / 0.19 / 0.32 / 0.51 / 0.56 / 0.38 | 0.46 | 1 of 18 (2.10) |

The measurements come from Li et al. 2023 (doi:10.1038/s41467-023-39022-2) through the FLAb antibody collection.